# Assay results from ChEMBL document CHEMBL4376805, “Plasmodium Purine Metabolism and Its Inhibition by Nucleoside and Nucleotide Analogues” (J Med Chem, 2019).
# Target: T1, Hypoxanthine-guanine phosphoribosyltransferase (Homo sapiens, UniProt P00492)
# T1 sequence (P00492 whole entry): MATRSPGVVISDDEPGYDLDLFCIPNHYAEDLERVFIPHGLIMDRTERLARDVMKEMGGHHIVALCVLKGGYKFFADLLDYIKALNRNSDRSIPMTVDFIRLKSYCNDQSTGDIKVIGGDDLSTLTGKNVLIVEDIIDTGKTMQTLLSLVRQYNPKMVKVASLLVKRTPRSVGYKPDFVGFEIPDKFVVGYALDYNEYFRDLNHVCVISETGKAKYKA
smiles,measurement,value
O=C(CCP(=O)(O)O)N1C[C@@H](n2cnc3c(O)ncnc32)[C@H](OC[C@@H](O)P(=O)(O)O)C1,Ki,1.3 nM
